For one compound, inhibition results are on record in ChEMBL document CHEMBL1140742, “Discovery of novel chemotypes to a G-protein-coupled receptor through ligand-steered homology modeling and structure-based virtual screening” (J Med Chem, 2008).

Amino acid sequences for entries named in this document (tags omitted). A change or cut given only in a name is not applied to a line headed by its entry.
UniProt Q99705: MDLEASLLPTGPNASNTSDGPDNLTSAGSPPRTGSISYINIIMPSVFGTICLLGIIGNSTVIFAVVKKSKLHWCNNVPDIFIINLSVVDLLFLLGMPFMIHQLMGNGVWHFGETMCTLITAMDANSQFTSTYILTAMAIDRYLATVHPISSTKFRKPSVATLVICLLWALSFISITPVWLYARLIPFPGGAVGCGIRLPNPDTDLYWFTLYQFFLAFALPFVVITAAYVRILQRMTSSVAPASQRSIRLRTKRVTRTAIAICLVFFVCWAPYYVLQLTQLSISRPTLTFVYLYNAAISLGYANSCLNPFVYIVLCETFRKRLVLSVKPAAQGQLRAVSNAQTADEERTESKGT

This experiment deals with Melanin-concentrating hormone receptor 1 (Homo sapiens, UniProt Q99705). In words: Displacement of [125I]MCH from human MCHR1 expressed in CHO cell membranes at 5 ug/ml.

On to `O=C(NC(Sc1ccc(Cl)cc1)C(Cl)(Cl)Cl)Sc1ccc(Cl)cc1` (stereo unspecified), for which the inhibition was 17%.
